According to ChEMBL document CHEMBL2169848, “Synthesis physicochemical profile and PAMPA study of new NO-donor edaravone co-drugs” (Bioorg Med Chem, 2012):

Test system: Thoracic aorta
Assay: Vasodilatory activity in Wistar rat denuded thoracic aorta assessed as inhibition of L-phenylephrine-induced contraction
Type: functional, tissue-based
In short: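 Endothelium-denuded thoracic aorta strips from male Wistar rats (180–200 g) in gassed Krebs-type buffer at 37 °C, pH 7.4. Strips equilibrated 1.5 h, then contracted with 1 µM L-phenylephrine. Cumulative concentrations added at plateau and isometric tension recorded. EC50 (±SEM) in µM from at least five experiments.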

Row | Compound | inhibition
1 | O=[N+]([O-])OCC(CCCCO)O[N+](=O)[O-] (configuration not stated) | Dose-dependent effect
2 | O=C(O)CCCC(CO[N+](=O)[O-])O[N+](=O)[O-] (configuration not stated) | Dose-dependent effect
